Test results reported in ChEMBL document CHEMBL5729155, “Prodrugs of modulators of the NMDA receptor” (2022).

Target: Glutamate receptor ionotropic, NMDA 1 (Homo sapiens, UniProt Q05586)

**Q.** N[C@H](CNC(=O)c1cc2nccc(Br)c2s1)C(=O)O was tested. Which pKi did it give?
**A.** Its pKi is 7.20.

pKi: −log10 of the molar value.
